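Tested at 5 concentrations; 48 h exposure; 96-well plates; endpoints linearly interpolated, else capped at highest concentration. TGI denotes the concentration required for complete inhibition of growth.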
How the values were obtained:
Assay in all cases: NCI-60 cell line screen, 48 h
786-0 renal = tested on: 786-0 renal
ACHN renal = tested on: ACHN renal
CAKI-1 renal = tested on: CAKI-1 renal
CCRF-CEM leukemia = tested on: CCRF-CEM leukemia
COLO 205 colon = tested on: COLO 205 colon
DU-145 prostate = tested on: DU-145 prostate
HCC-2998 colon = tested on: HCC-2998 colon
HCT-116 colon = tested on: HCT-116 colon
HL-60(TB) leukemia = tested on: HL-60(TB) leukemia
HOP-62 NSCLC = tested on: HOP-62 NSCLC
HOP-92 NSCLC = tested on: HOP-92 NSCLC
HS 578T breast = tested on: HS 578T breast
IGROV1 ovarian = tested on: IGROV1 ovarian
K-562 leukemia = tested on: K-562 leukemia
M14 melanoma = tested on: M14 melanoma
MALME-3M melanoma = tested on: MALME-3M melanoma
MCF7 breast = tested on: MCF7 breast
MDA-MB-435 = tested on: MDA-MB-435
MOLT-4 leukemia = tested on: MOLT-4 leukemia
NCI-H460 lung = tested on: NCI-H460 lung
NCI/ADR-RES ovarian = tested on: NCI/ADR-RES ovarian
OVCAR-4 ovarian = tested on: OVCAR-4 ovarian
OVCAR-5 ovarian = tested on: OVCAR-5 ovarian
RPMI-8226 leukemia = tested on: RPMI-8226 leukemia
SK-MEL-2 melanoma = tested on: SK-MEL-2 melanoma
SK-OV-3 ovarian = tested on: SK-OV-3 ovarian
SNB-19 CNS = tested on: SNB-19 CNS
SR leukemia = tested on: SR leukemia
T-47D breast = tested on: T-47D breast
U251 CNS = tested on: U251 CNS
UACC-62 melanoma = tested on: UACC-62 melanoma
UO-31 renal = tested on: UO-31 renal

Measured: TGI

CN=C(/N=C1\N(C)C(C)(C)P(=O)(O)N1C)NC
> 100 µM: 786-0 renal | ACHN renal | CAKI-1 renal | CCRF-CEM leukemia | COLO 205 colon | DU-145 prostate | HCC-2998 colon | HCT-116 colon | HL-60(TB) leukemia | HOP-62 NSCLC | HOP-92 NSCLC | HS 578T breast | IGROV1 ovarian | K-562 leukemia | M14 melanoma | MALME-3M melanoma | MCF7 breast | MDA-MB-435 | MOLT-4 leukemia | NCI-H460 lung | NCI/ADR-RES ovarian | OVCAR-4 ovarian | OVCAR-5 ovarian | RPMI-8226 leukemia | SK-MEL-2 melanoma | SK-OV-3 ovarian | SNB-19 CNS | SR leukemia | T-47D breast | U251 CNS | UACC-62 melanoma | UO-31 renal
